logP (octanol/water) values, as collected for the OPERA models

logP is the log10 of the octanol-water partition coefficient; higher is more lipophilic. Cells with "–" have no entry in this list.

structure (SMILES),name,logP
FC(F)(F)C(F)(F)C(F)(F)F,Perflutren,3
CC1=NN(c2ccc(S(=O)(=O)[O-])cc2)C(=O)C1/N=N/c1ccccc1C(=O)[O-].[Na+].[Na+] (stereo partly drawn),–,-2.5
CCCCCCS,1-Hexanethiol,5.35
Br.COc1ccc(C)cc1C(CCN(C(C)C)C(C)C)c1ccccc1 (centres undefined),–,0.103
CCCCc1nc(Cl)c(CO)n1Cc1ccc(-c2ccccc2-c2nnn(C(c3ccccc3)(c3ccccc3)c3ccccc3)n2)cc1,Trityllosartan,3.9
C(=Cc1ccc(-c2nc3ccccc3o2)cc1)c1ccc(-c2nc3ccccc3o2)cc1,"4,4'-Bis(2-benzoxazolyl)stilbene",5.499
CC(=O)OC1CCC2CCCCC2C1 (centres undefined),Decahydro-2-naphthyl acetate,4.45
CCCCOC(=O)NC(=S)SCCCC,Butyl N-[(butylthio)thioxomethyl]carbamate,4.69
Nc1c(Cl)cc(-c2cc(Cl)c(N)c(S(=O)(=O)O)c2)cc1S(=O)(=O)O,"4,4'-Diamino-5,5'-dichloro[biphenyl]-3,3'-disulfonic acid",-2.51
COc1ccc([N+](=O)[O-])cc1OCCCCl,2-(3-Chloropropoxy)-1-methoxy-4-nitrobenzene,2.595
COc1cc2c(cc1OC)CC(=O)NC=C2,"7,8-dimethoxy-1,3-dihydro-2H-3-benzazepin-2-one",1.23
Cc1ccc2c(c1)C(=O)c1ccccc1C2=O,2-Methylanthraquinone,3.406
CC1=NN(c2cccc(Cl)c2)C(=O)C1/N=N/c1ccc(S([NH-])(=O)=O)cc1C(=O)[O-].CC1=NN(c2cccc(Cl)c2)C(=O)C1/N=N/c1ccc(S([NH-])(=O)=O)cc1C(=O)[O-].[Cr+3].[H+] (stereo partly drawn),–,4.8
Cc1cc(S(=O)(=O)O)ccc1N,"Benzenesulfonic acid, 4-amino-3-methyl-",0.076
Clc1ccc(C(Cn2ccnc2)OCc2ccsc2Cl)c(Cl)c1 (centres undefined),Tioconazole,4.4
CC#CCn1c(N2CCC[C@@H](N3C(=O)c4ccccc4C3=O)C2)nc2c1c(=O)n(Cc1nc(C)c3ccccc3n1)c(=O)n2C,–,3.85
CC(=O)[O-].CCN(CC)c1ccc([C+](c2ccc(N(CC)CC)cc2)c2ccc(N(CC)CC)cc2)cc1,Tris(4-(diethylamino)phenyl)methylium acetate,1.959
C=C(C)C(=O)OCCOCCOCCCC,2-(2-Butoxyethoxy)ethyl methacrylate,3.015
C=CC(=O)OCCCS(=O)(=O)[O-].[K+],Potassium 3-sulfopropyl acrylate,-3.63
CC(C)(C)c1ccc(C2=C3C(=O)NC(c4ccc(C(C)(C)C)cc4)=C3C(=O)N2)cc1,C.I. Pigment Orange 73,5
CC(=O)Oc1ccccc1C(=O)OCC(=O)N(C)CCO,–,0.06
CC(=O)C(N=Nc1ccc(-c2ccc(N=NC(C(C)=O)C(=O)Nc3ccccc3)c(Cl)c2)cc1Cl)C(=O)Nc1ccccc1 (centres undefined),C.I. Pigment Yellow 12,2.1
CC(=O)CC(=O)Nc1ccc(NC(=O)CC(C)=O)cc1,"Butanamide, N,N'-1,4-phenylenebis[3-oxo-",-0.14
CCC(=O)O[C@@H]1C[C@H]2CC[C@]1(C)C2(C)C,Isobornyl propanoate,5
CCn1c(O)c(N=Nc2ccccc2[N+](=O)[O-])c(C)c(C#N)c1=O,–,3.3
Nc1cc(S(=O)(=O)[O-])cc2cc(S(=O)(=O)[O-])c(/N=N/c3ccc(-c4ccc(/N=N/c5c(S(=O)(=O)[O-])cc6cc(S(=O)(=O)[O-])cc(N)c6c5[O-])c([O-])c4)cc3[O-])c([O-])c12.[Cu+2].[Cu+2].[Na+].[Na+].[Na+].[Na+],C.I. Direct Blue 218,-0.77
CC(=O)C[C@@H]1O[C@H](COC(C)=O)[C@@H](OC(C)=O)[C@H](OC(C)=O)[C@H]1OC(C)=O,"2,3,4,6-Tetra-O-acetyl-beta-D-glucopyranosyl acetate",0.63
CCCCOc1ccc(B(O)O)c(F)c1F,"(4-Butoxy-2,3-difluorophenyl)boronic acid",3.2
CC(=O)NCc1ccc([N+](=O)[O-])cc1,N-((4-Nitrophenyl)methyl)acetamide,0.91
CC(C)(C)c1cc(CCC(=O)O)cc(-n2nc3ccccc3n2)c1O,–,2.75
CC1(C)CC(N)CC(C)(CN)C1 (centres undefined),Isophorone diamine,0.89
N=C(N)SCCC(=O)O,"Propanoic acid, 3-((aminoiminomethyl)thio)-",-2.42
OCc1cccc(Oc2ccccc2)c1,3-Phenoxybenzenemethanol,2.797
O=[N+]([O-])c1ccc(OP(=O)([O-])[O-])cc1.[Na+].[Na+],4-Nitrophenyl phosphate disodium salt,-2.16
COc1ccc(C(=O)Nc2ccc(C(N)=O)cc2)cc1[N+](=O)[O-],N-(4-(Aminocarbonyl)phenyl)-4-methoxy-3-nitrobenzamide,1.75

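The OPERA project collected these measurements from public sources as training and test data for property models. The files give a single number for a compound and property, which may rest on several reports. Conditions of the individual experiments are not part of the data. The measured form (salt, isomer or mixture) is not always the one drawn. Some upstream entries may be estimates or bounds without being marked so.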

From the experimental data distributed with OPERA 2.9.